How the values were obtained:
Type in all cases: cell-based, mouse
[1] = tested on: Id1 promoter; assay: Chromatin immunoprecipitation (ChIP) at the Id1 promoter in C2C12 cells; conditions: BMP-2 stimulation 4 hrs, versus unstimulated cells
Procedure: FIG. 6. cGKI, Smad1 and TFII-I co-localize at the Id1 promoter after stimulation with BMP-2 (A, B and C) C2C12 cells were stimulated with BMP-2 and/or 8-Br-cGMP or left unstimulated (−). Chromatin immunoprecipitation (ChIP) was performed using (A) α-cGKI or α-Smad1 antibody or (B) α-Smad1 followed by α-cGKI antibody and vice versa or (C) α-Smad1 followed by α-TFII-I antibody and vice versa. Subsequent PCR identified a co-precipitated Id1 promoter sequence using specific primers. The applied amount of DNA for ChIP is shown in lane 1. To exclude unspecific outcome control samples were run (for ChIP: no antibody, IgG, α-GFP antibody; for two-step ChIP: α-respective antibody followed by IgG; for unspecific amplification via PCR: no template). […] C2C12 cells were stimulated with BMP-2 for 4 h or left unstimulated. Endogenous chromatin immunoprecipitations (ChIP) of a specific Id1 promoter fragment was performed using α-Smad1 and α-cGKI antibodies (left). […] (D) Endogenous complexes with cGKI from C2C12 cells were analyzed with α-TFII-I, α-Smad1 and α-Smad4 antibodies and a lysate aliquot was monitored for protein expression. (E) Smad1/TFII-I association was analyzed in 293T cells expressing both proteins. […]
ChIP was performed as described previously (Weiske and Huber, 2006) with minor modifications. […] PCR products were separated on 8% PA gels and analyzed under UV light.

[2] = tested on: BMP response element (BRE from Id1 promoter) luciferase reporter; assay: BRE luciferase reporter gene assay in C2C12 cells; conditions: endogenous cGKI, 1 nmol/l BMP-2 and/or 1 μmol/l or 100 μmol/l 8-Br-cGMP, 24 hrs
Procedure: (§1) FIG. 7. cGMP/cGKI pathway stimulates BMP-2 signaling via Smad1/5 (A and B) C2C12 cells were co-transfected with pBRE-luc, pRL-TK and cGKI variants and stimulated with BMP-2 or left untreated. Luciferase activity was measured and error bars result from the mean of duplicate measurements. […] Expression of cGKIα/β was controlled by immunoblot using α-cGKI antibody. (C) As in (A and B) except that reporters were co-transfected with sh-cGKI, sh-cGKI mix and sh-control into C2C12 cells. BRE driven luciferase activity was measured and error bars represent deviation of the mean of duplicate measurements. […] (D) C2C12 cells were transfected with BRE-luc and pRL-TK and stimulated with BMP-2 and/or 8-Br-cGMP. Luciferase activities are represented as mean of each value and standard deviations result from duplicate measurements. […] The mRNA amount of Id1 was analyzed using Id1 specific primers including the control of applied cDNA by PCR using β-actin specific primers. […] BRE driven luciferase activity was measured, standard deviations result from duplicate measurements. […] Lysates were pooled and immunoblotted for expression of cGKIα and TFII-I. (G) As in (E) except that mRNA amount of cGKI was analyzed using cGKI specific primers. […] Results were quantified using ImageJ. cGKI mRNA expression was normalized relative to β-actin. […] The PDGF- or serum-induced proliferation was measured. […]

[3] = tested on: Id1; assay: BMP-2 target gene assay (RT-PCR), Id1 mRNA in C2C12 cells; conditions: 20 nmol/l BMP-2 and/or 1 μmol/l 8-Br-cGMP, 4 hrs
Procedure: as §1

[4] = tested on: cGKI; assay: BMP-2 target gene assay (RT-PCR), cGKI mRNA in C2C12 cells; conditions: four hours of stimulation with BMP-2
Procedure: as §1

[5] = tested on: cGKI; assay: Immunofluorescence microscopy of cGKI localization in C2C12 cells; conditions: stimulation for 30 min
Procedure: FIG. 3. cGKI detaches from the receptor complex and undergoes nuclear translocation upon BMP-2 stimulation (A and B) 293T cells were co-transfected with cGKIβ and HA-tagged BRII-SF (A) or HA-BRII-LF (B). Cells were stimulated with BMP-2 from 5 to 60 min. cGKIβ was immunoprecipitated from cell lysates followed by immunoblot using α-HA antibody. Protein expression was controlled by immunoblotting with α-cGKI and α-HA antibodies. These experiments are exemplarily (n>3). Results for cGKIβ/BRII-SF were quantified using ImageJ and error bars represent deviation of the mean of two experiments. (C) Immunofluorescence staining of cGKI in C2C12 cells after stimulation with BMP-2 or 8-Br-cGMP. DNA was stained using Hoechst dye.
For co-localization studies, C2C12 cells stably expressing N-terminally HA-tagged BRII-SF or BRII-LF were stained as described in (Gilboa et al., 2000). Analysis was done with 63-fold magnification at a Leica DMR (Leica) confocal microscope. To examine the protein localization C2C12 cells or transfected 293T cells were starved for 3 hrs and either stimulated with 10 or 20 nmol/l BMP-2 and/or 1 mmol/18-Br-cGMP for 30 min or for 5 to 60 min or left untreated. Indirect immunofluorescence was performed as described in (Bengtsson and Wilson, 2006). Cells were analyzed using fluorescence microscopy (63-fold magnification, Axiovert 200M, Zeiss).

BMP-2: Bone Morphogenetic Protein 2, BMP-receptor ligand used for stimulation
association of Smad1 and cGKI with the Id1 promoter [1]: 5 fold | BRE reporter gene activity upon stimulation [2]: strongly induced | induction of Id1 mRNA [3]: more than 2 fold | upregulation of cGKI mRNA (factor) [4]: 2 | nuclear translocation of endogenous cGKI [5]: induced nuclear translocation
